EPAC2 ag – activates human EPAC2 exchange factor; EPAC2 activation, biochemical qHTS; response scale: 100% = 6.5 mM cAMP response; Potency, µM (series often up to 154 µM), usual class: activators; hit rate 0.079% among 360,000; AID 720711; note: nearly all actives have a fitted effect of over 50% in size
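Guanine nucleotide exchange by EPAC2 is measured as reduced fluorescence of BODIPY-GDP once it is released from 250 nM Rap1B. Plates are read kinetically for 30 min at room temperature; results are scaled to 6.5 mM cAMP.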
EPAC1 ag – EPAC1 (human) agonism. O95398. EPAC1 agonist qHTS, biochemical assay; response scale: 100% = response to 6.5 mM cAMP. Potency, µM (doses to about 154 µM), usual class: activators. hit rate 0.073% among 360,000; note: nearly all actives have a fitted effect of over 60% in size
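Nucleotide exchange by EPAC1 (100 nM) on Rap1B–BODIPY-GDP (250 nM) in the presence of 50 uM GDP is tracked fluorescently at 480/540 nm over 30 min. Signals are normalized to a 6.5 mM cAMP control.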
Rango dissoc inh – prevents RanGTP from dissociating the Rango-importin beta complex. Potency, µM (doses to about 46.1 µM). O95149+P62826. Biochemical FRET Rango-importin beta, RanGTP-induced dissociation. hit rate 0.071% among 340,000; calls by dose curve; note: nearly all actives have a fitted effect of over 45% in size
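Compounds preincubate 5 min with complex of recombinant Rango and importin beta in PBS with 1 mM DTT. Ran (0.6 uM) loaded with 2 mM GTP plus 0.2 uM RCC1 starts dissociation; FRET is recorded 45 min later.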
EPAC2 antagonist – blocks human EPAC2 exchange factor | Q8WZA2 | EPAC2 GEF exchange of Rap1B-BODIPY-GDP, fluorescence | Potency, µM (series often up to 114 µM), actives largely listed as inhibitors | hit rate 0.18% among 360,000 | AID 720708; note: nearly all actives have a fitted effect of over 45% in size
EPAC1 antag – EPAC1 (human) antagonism. EPAC1 GEF assay, Rap1b-BODIPY-GDP exchange fluorescence. AID 720709. Potency, µM (series often up to 115 µM), usual class: inhibitors. hit rate 0.14% among 360,000. O95398; note: nearly all actives have a fitted effect of over 50% in size
Rango-impB inh – Rango-importin beta binding inhibition; Potency, µM (series often up to 92.2 µM); Q14974; Rango CFP/YFP FRET sensor + importin beta, 45 min; hit rate 0.031% among 340,000; calls by dose curve; note: nearly all actives have a fitted effect of over 15% in size
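Inhibition scored from the CFP 486 nm/YFP 530 nm FRET ratio 45 min after adding 0.125 microM importin beta to 50 nM Rango biosensor preincubated 5 min with compound (room temperature, PBS with DTT, Tween-20, BSA). No-importin wells as positive control.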
Hits are given with their value; n = inactive; u = inconclusive; x = no result. Compounds with a hit are over-represented: about 0.43% of the library has one in this group of screens. Unless noted, calls come from the whole dose curve; as a rule, active = well fitted curve in the direction sought with a large enough effect; inconclusive = small, poorly fitted or top-dose-only effect, or another doubt; inactive = no such curve, though single readings can be large; an effect the other way counts as inactive or inconclusive.

SMILES	EPAC2 ag	EPAC1 ag	Rango dissoc inh	EPAC2 antagonist	EPAC1 antag	Rango-impB inh
COc1ccc(OC)c(NC(=O)CSc2nc(O)cc(=O)n2CC(C)C)c1	n	n	n	n	56µM	n
CN1C(=O)c2cccc3c(S(N)(=O)=O)ccc1c23	n	n	0.58µM	n	n	u
C=CCn1c(-c2ccc(S(=O)(=O)N3CCOCC3)cc2)csc1=Nc1ccccc1	7.9µM	n	n	n	n	n
CC(=O)c1cccc(N=c2scc(-c3ccc(S(=O)(=O)N4CCOCC4)cc3)n2CCO)c1	n	n	n	n	n	n
CC(=O)N1CC(C)Sc2ccc(S(=O)(=O)N3CCCCC3)cc21 (stereo not given)	n	n	n	n	n	n
CC12CCC3(CC1CCC1OC12)OCCO3 (stereo not given)	n	n	n	n	n	n
CC1(C2CCC3C4CCC5CC6(CCC5(C)C4C(=O)CC32C)OCCO6)OCCO1 (stereo not given)	n	n	n	56µM	u	n
Cc1cc(OCC(=O)N2CCC(O)CC2)c2c(C)cc(=O)oc2c1	n	n	n	n	n	n
COc1ccc(CCNS(=O)(=O)c2cc3c4c(c2)C(C)C(=O)N4CCC3)cc1OC (stereo not given)	n	n	16µM	n	n	n
CC1C(=O)N2CCCc3cc(S(=O)(=O)NCCc4ccccc4)cc1c32 (stereo not given)	n	n	n	n	n	n
O=C1N=c2ccccc2=C1c1sc(Nc2cccc(O)c2)nc1O	n	n	n	n	n	n
O=C1N=c2ccccc2=C1c1sc(Nc2ccc(O)cc2)nc1O	n	n	n	n	45µM	n
COc1ccc(NC(=O)CSc2nc3nc(-c4cccs4)cc(C(F)(F)F)c3c(=O)[nH]2)c(OC)c1	n	n	n	n	32µM	n
COc1cccc(-c2ccc(C#N)c(OC(=O)c3ccc(Cl)cc3)n2)c1	6.3µM	n	n	n	n	n
C=CCN(c1ccc(Cl)cc1)S(=O)(=O)c1cccc(C(=O)O)c1	n	n	n	u	n	n
O=S(=O)(NCC1CC1)c1cc(Cl)cc(Cl)c1	n	n	n	n	n	n
CN(C)c1ccc(/C=C/c2nc3ccccc3c(=O)n2-c2ccc(C(=O)O)cc2)cc1	n	63µM	u	n	n	u
Cc1ccc(NC(=O)CCC(=O)NNC(=O)Cc2ccccc2)cc1C	n	n	n	n	n	n
CN(CC(=O)Nc1ccccc1Sc1ccccc1)C1CCCCC1	n	n	n	50µM	u	n
CCN1CCN(c2cc(N3CCN(C(=O)c4ccco4)CC3)c3c4c(onc24)-c2ccccc2C3=O)CC1	n	n	u	n	u	33µM
O=C(/C=C/[C@H]1O[C@@H](n2cnc3c(NC(=O)c4ccccc4)ncnc32)[C@H](O)[C@@H]1O)NCc1ccco1	n	n	x	n	n	x
Nc1nnc(SCC(=O)NNC(=O)c2ccc(Cl)cc2)s1	n	n	n	n	n	n
O=C(O)CCCCCN1C(=O)/C(=C/c2cn(-c3ccccc3)nc2-c2cccs2)SC1=S	n	89µM	n	n	n	u
O=C(O)CCCCCN1C(=O)/C(=C\c2cn(-c3ccccc3)nc2-c2cccs2)SC1=S	n	n	n	n	n	u
CCCS(=O)(=O)NC(=O)C1(C)CCN(C(=O)c2cccs2)C1 (stereo not given)	n	n	x	n	n	x
CSCCCNC(=S)N(C)CC(=O)Nc1ccc(C)cc1	n	n	n	n	n	n
Nc1ccc2c(S(=O)(=O)O)cccc2c1S(=O)(=O)O	n	n	n	56µM	n	n
CCC(=O)NC(c1cccs1)c1cc(Cl)c2ccccc2c1O (stereo not given)	n	n	n	79µM	n	n
COCCN(C(=O)CCC(=O)Nc1ccccn1)C(C(=O)NC(C)C)c1ccc(Cl)cc1 (stereo not given)	n	n	n	n	n	n
COc1cccc(NC(=O)COC(=O)c2ccc(C)c(S(=O)(=O)N3CCCCC3)c2)c1	n	n	n	n	n	n

Bioassay records deposited in PubChem BioAssay by National Center for Advancing Translational Sciences (NCATS).
